Results reported in patent publication US9526740B2, “Prochelators as broad-spectrum antimicrobial agents and methods of use” (Duke University, priority 2013, dated 2016).

Tested on: murine macrophage-like J774A.1 cells
Test: Viability of macrophage-like cells (CellTiter-Glo)
Conditions: 100 μM with supplemental Cu; 12 h

## CC1(C)C2CC3OB(c4cccc5cccnc45)O[C@]3(C)C1C2 (stereo in doubt) [QBP, quinoline boronic ester]
  Viability of J774.1 cells at highest dose with Cu: loss of viability
